From PubChem BioAssay (NCI)
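A five-concentration, 48-hour dose response in 96-well plates underlies each endpoint, interpolated linearly between surrounding concentrations. At the GI50, growth is halved. TGI is the concentration that stops growth completely.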

Legend:
Test in all cases: growth of human tumour cells (NCI), 48 h
[1] = tested on: OVCAR-4 ovarian
[2] = tested on: SF-539 CNS
[3] = tested on: SNB-19 CNS
[4] = tested on: HCT-116 colon
[5] = tested on: PC-3 prostate
[6] = tested on: NCI-H23 lung
[7] = tested on: HCT-15 colon
[8] = tested on: HT29 colon
[9] = tested on: HCC-2998 colon
[10] = tested on: UACC-62 melanoma
[11] = tested on: CCRF-CEM leukemia
[12] = tested on: CAKI-1 renal
[13] = tested on: MALME-3M melanoma
[14] = tested on: IGROV1 ovarian
[15] = tested on: NCI-H226 lung
[16] = tested on: MDA-MB-435
[17] = tested on: MCF7 breast
[18] = tested on: T-47D breast
[19] = tested on: HOP-92 NSCLC
[20] = tested on: A549 NSCLC
[21] = tested on: RXF 393 renal
[22] = tested on: NCI-H460 lung
[23] = tested on: SW-620 colon
[24] = tested on: SR leukemia
[25] = tested on: UO-31 renal
[26] = tested on: SK-MEL-28 melanoma
[27] = tested on: OVCAR-5 ovarian
[28] = tested on: LOX IMVI melanoma
[29] = tested on: RPMI-8226 leukemia
[30] = tested on: UACC-257 melanoma
[31] = tested on: 786-0 renal
[32] = tested on: SNB-75 CNS
[33] = tested on: NCI-H522 lung
[34] = tested on: HS 578T breast
[35] = tested on: SK-MEL-2 melanoma
[36] = tested on: SK-MEL-5 melanoma
[37] = tested on: A498 renal
[38] = tested on: M14 melanoma
[39] = tested on: SK-OV-3 ovarian
[40] = tested on: COLO 205 colon
[41] = tested on: KM12 colon
[42] = tested on: BT-549 breast
[43] = tested on: OVCAR-3 ovarian
[44] = tested on: NCI-H322M lung
[45] = tested on: SF-295 CNS
[46] = tested on: MOLT-4 leukemia
[47] = tested on: SN12C renal
[48] = tested on: DU-145 prostate
[49] = tested on: NCI/ADR-RES ovarian
[50] = tested on: HOP-62 NSCLC
[51] = tested on: ACHN renal
[52] = tested on: U251 CNS
[53] = tested on: SF-268 CNS
[54] = tested on: OVCAR-8 ovarian
[55] = tested on: TK-10 renal
[56] = tested on: K-562 leukemia
[57] = tested on: MDA-MB-231 breast

`NCCc1ccc(N(CCCl)CCCl)cc1` showed a GI50 [1] of 11.1 µM, a TGI [1] of 50.3 µM and a GI50 [2] of 2.24 µM. For the same compound, the TGI [2] was 10.1 µM, the GI50 [3] was 8.78 µM and the TGI [3] was > 100 µM. For the same compound, the GI50 [4] was 7.88 µM, the TGI [4] was > 100 µM and the GI50 [5] was 11.5 µM. The TGI [5] was 67.1 µM, the GI50 [6] was 4.91 µM and the TGI [6] was 48.9 µM. For the same compound, the GI50 [7] was 5.85 µM, the TGI [7] was 91.7 µM and the GI50 [8] was 9.01 µM. For the same compound, the TGI [8] was 54.6 µM, the GI50 [9] was 14.8 µM and the TGI [9] was 41.2 µM. For the same compound, the GI50 [10] was 4.17 µM, the TGI [10] was 20.4 µM and the GI50 [11] was 1.01 µM. For the same compound, the TGI [11] was > 100 µM, the GI50 [12] was 0.736 µM and the TGI [12] was 18.9 µM. It also gave a GI50 [13] of 3.24 µM, a TGI [13] of 12.9 µM and a GI50 [14] of 2.59 µM. For the same compound, the TGI [14] was 37.5 µM, the GI50 [15] was 16.5 µM and the TGI [15] was 71.5 µM. It also gave a GI50 [16] of 10.4 µM, a TGI [16] of 24.1 µM and a GI50 [17] of 0.7 µM. The TGI [17] was 26.6 µM, the GI50 [18] was 6.17 µM and the TGI [18] was > 100 µM. For the same compound, the GI50 [19] was 2.15 µM, the TGI [19] was 25.5 µM and the GI50 [20] was 9.91 µM. The TGI [20] was 75.3 µM, the GI50 [21] was 1.99 µM and the TGI [21] was 5.76 µM. The GI50 [22] was 0.647 µM, the TGI [22] was 30.4 µM and the GI50 [23] was 6.34 µM. The TGI [23] was > 100 µM, the GI50 [24] was 0.541 µM and the TGI [24] was > 100 µM. For the same compound, the GI50 [25] was 2.29 µM, the TGI [25] was 9.41 µM and the GI50 [26] was 15.9 µM. For the same compound, the TGI [26] was 64.8 µM, the GI50 [27] was 3.84 µM and the TGI [27] was 24.6 µM. It also gave a GI50 [28] of 2.06 µM, a TGI [28] of 40.6 µM and a GI50 [29] of 3.23 µM. The TGI [29] was 35.2 µM, the GI50 [30] was 15.4 µM and the TGI [30] was 57.2 µM. It also gave a GI50 [31] of 3.51 µM, a TGI [31] of 13.7 µM and a GI50 [32] of 2.98 µM. It also gave a TGI [32] of 22.3 µM, a GI50 [33] of 1.56 µM and a TGI [33] of 3.75 µM. For the same compound, the GI50 [34] was 22.3 µM, the TGI [34] was 70.2 µM and the GI50 [35] was 4.29 µM. It also gave a TGI [35] of 20.6 µM, a GI50 [36] of 12.9 µM and a TGI [36] of 60.4 µM. For the same compound, the GI50 [37] was 3.54 µM, the TGI [37] was 18.9 µM and the GI50 [38] was 7.46 µM. The TGI [38] was 99.1 µM, the GI50 [39] was 10.8 µM and the TGI [39] was > 100 µM. It also gave a GI50 [40] of 12 µM, a TGI [40] of 31.6 µM and a GI50 [41] of 14.5 µM. The TGI [41] was 42 µM, the GI50 [42] was 13.5 µM and the TGI [42] was 48.2 µM. The GI50 [43] was 5.25 µM, the TGI [43] was 29.1 µM and the GI50 [44] was 18 µM. For the same compound, the TGI [44] was 60.2 µM, the GI50 [45] was 3.41 µM and the TGI [45] was > 100 µM. The GI50 [46] was 1.39 µM, the TGI [46] was > 100 µM and the GI50 [47] was 2.23 µM. For the same compound, the TGI [47] was 77.7 µM, the GI50 [48] was 2.9 µM and the TGI [48] was 24.6 µM. For the same compound, the GI50 [49] was 5.01 µM, the TGI [49] was > 100 µM and the GI50 [50] was 16.7 µM. The TGI [50] was > 100 µM, the GI50 [51] was 0.694 µM and the TGI [51] was 6.05 µM. For the same compound, the GI50 [52] was 2.36 µM, the TGI [52] was 43.8 µM and the GI50 [53] was 1.95 µM. The TGI [53] was 33.1 µM, the GI50 [54] was 4.46 µM and the TGI [54] was 45.1 µM. It also gave a GI50 [55] of 11.5 µM, a TGI [55] of 41.6 µM and a GI50 [56] of 5.5 µM. The TGI [56] was > 100 µM, the GI50 [57] was 19.5 µM and the TGI [57] was 70.4 µM.
